The text below walks through data of publication PMC5759193, “The tankyrase inhibitor G007-LK inhibits small intestine LGR5^+ stem cell proliferation without altering tissue morphology” (Biological Research, 2018).

This data set in a line: Tolerance: body mass, food consumption, clinical observations.
The mark [1] stands for this setting: enriched diet 100 or 1000 mg G007-LK/kg chow, up to 3 weeks.

In the case of `CS(=O)(=O)c1ccc(-c2nnc(/C=C/c3nnc(-c4ccc(C#N)cc4)o3)n2-c2ccccc2Cl)nc1` [G007-LK], under setting [1], the “body mass development vs control” value was “not affected” and the clinical observations result is “no abnormalities”. Besides, the “body mass at experimental endpoint vs vehicle” value (oral gavage daily 9 days, 10 or 50 mg/kg body mass) is given as “did not statistically significant (t test, p > 0.05) affect body mass”.
